{"sequences": {"note": "Protein sequences, listed by entry. Tags and fused reporters are not part of them. Residues count along the entry.", "UniProt P17787, 26-502 limits assumed": "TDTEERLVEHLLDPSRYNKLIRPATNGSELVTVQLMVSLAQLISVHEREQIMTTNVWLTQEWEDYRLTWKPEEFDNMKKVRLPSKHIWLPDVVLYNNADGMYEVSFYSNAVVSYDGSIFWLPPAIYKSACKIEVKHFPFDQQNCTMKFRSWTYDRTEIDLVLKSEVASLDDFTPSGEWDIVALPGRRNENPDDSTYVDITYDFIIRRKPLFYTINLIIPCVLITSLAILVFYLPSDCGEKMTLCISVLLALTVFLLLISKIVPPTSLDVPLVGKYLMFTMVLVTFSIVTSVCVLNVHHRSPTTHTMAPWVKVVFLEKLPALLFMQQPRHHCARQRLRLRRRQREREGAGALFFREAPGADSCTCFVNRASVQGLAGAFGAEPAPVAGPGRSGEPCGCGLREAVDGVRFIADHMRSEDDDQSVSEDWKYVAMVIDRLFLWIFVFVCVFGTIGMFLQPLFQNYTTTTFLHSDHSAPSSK"}, "source": "patent EP3727043B1", "about": "(Golden Gait Biotech, S.L., priority 2017, dated 2019)", "key": {"[1]": {"test_system": "rats with a unilateral 6-hydroxydopamine lesion", "test": "LIDs in rats with a unilateral 6-hydroxydopamine lesion", "type": "in vivo", "conditions": "parkinsonian rat model of LIDs"}, "[2]": {"target": "β2* nAChR (Homo sapiens, UniProt P17787)", "conditions": "nAChR subtype: β2; cited from earlier work"}}}
{"smiles": "O=C(C1CC1)N1CC2CC(C1)N2", "values": [{"measurement": "reduction of LIDs", "setting": "[1]", "result": "reduced LIDs to varying extents"}, {"measurement": "Ki", "setting": "[2]", "result": "1 to 3", "unit": "nM"}]}
